Experiment: Ratio of Ki for GABAA alpha1 T162C beta2gamma2 receptor mutant to Ki for GABAA alpha-1-beta-2-gamma-2 receptor

CN1CCN(C(=O)O[C@H]2c3nccnc3C(=O)N2c2ccc(Cl)cn2)CC1 [ESZOPICLONE]
Ratio Ki: 0.7

From ChEMBL document CHEMBL1152298 (J Med Chem, 2008)
